Data on five molecules can be found in patent US20250188060A1, “ALPHA1A-ADRENERGIC RECEPTOR AGONISTS AND METHODS OF USE” (CuraSen Therapeutics, Inc., priority 2022, published 2025).

The chains behind the UniProt entries cited, without tags or fusion partners.
UniProt P35348, whole entry: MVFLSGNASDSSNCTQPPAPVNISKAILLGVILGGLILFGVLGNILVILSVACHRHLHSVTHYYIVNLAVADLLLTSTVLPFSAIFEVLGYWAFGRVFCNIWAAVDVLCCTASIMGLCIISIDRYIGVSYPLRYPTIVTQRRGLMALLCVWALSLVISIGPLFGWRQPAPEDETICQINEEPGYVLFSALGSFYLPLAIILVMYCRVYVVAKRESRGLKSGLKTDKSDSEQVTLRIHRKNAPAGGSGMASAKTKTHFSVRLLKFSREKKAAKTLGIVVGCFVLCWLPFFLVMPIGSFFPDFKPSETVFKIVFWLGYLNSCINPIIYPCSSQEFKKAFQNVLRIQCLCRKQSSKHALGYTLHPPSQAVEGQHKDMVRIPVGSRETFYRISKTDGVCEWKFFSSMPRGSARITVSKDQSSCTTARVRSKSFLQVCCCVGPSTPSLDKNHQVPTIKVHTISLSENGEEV

Structures are written as SMILES.

The target of the experiment is α1A-ARs (Homo sapiens, UniProt P35348). The experiment can be described thus: Calcium flux assay (Calcium 6 dye) in cells expressing an α1-AR. The following applies: mean of at least three experiments; for Average Emax (% epi): relative to full agonist epinephrine. A general note: Calcium assays in cells follow changes in intracellular calcium, usually with a dye or a luminescent sensor.

On to `Clc1nn(CC2=NCCN2)c2c(-c3cccnc3)cccc12`, for which the “Average pEC50” value is “B (B = 8.00-6.01)” and the “Average Emax (% epi)” value was “A (A > 61%)”.

Regarding `Clc1nn(CC2=NCCN2)c2c(-c3ccncc3)cccc12`, the “Average pEC50” value is reported as “B (B = 8.00-6.01)” and the “Average Emax (% epi)” value was “A (A > 61%)”.

On to `CCc1nn(CC2=NCCN2)c2c(Cl)cccc12`, for which the “Average pEC50” value is “B (B = 8.00-6.01)” and the “Average Emax (% epi)” value is “B (B = 21-60%)”.

For the molecule `Clc1cccc2c(C3CC3)cn(CC3=NCCN3)c12` [Compound 3], the “Average pEC50” value is on record as “B (B = 8.00-6.01)” and the “Average Emax (% epi)” value is “A (A > 61%)”.

As to `CC(C)c1ccc(Cl)c2c1ccn2CC1=NCCN1`, under “tested form: HCl”, the “Average pEC50” value is reported as “B (B = 8.00-6.01)” and the “Average Emax (% epi)” value is given as “B (B = 21-60%)”.
